According to publication PMC4728423, “Natural and synthetic flavonoid modulation of TRPC5 channels” (British Journal of Pharmacology, 2016):

Target: T1, human TRPC5 (Homo sapiens, UniProt Q9UL62)
T1 construct: expressed in transfected cells
T1 sequence (Q9UL62 1-973): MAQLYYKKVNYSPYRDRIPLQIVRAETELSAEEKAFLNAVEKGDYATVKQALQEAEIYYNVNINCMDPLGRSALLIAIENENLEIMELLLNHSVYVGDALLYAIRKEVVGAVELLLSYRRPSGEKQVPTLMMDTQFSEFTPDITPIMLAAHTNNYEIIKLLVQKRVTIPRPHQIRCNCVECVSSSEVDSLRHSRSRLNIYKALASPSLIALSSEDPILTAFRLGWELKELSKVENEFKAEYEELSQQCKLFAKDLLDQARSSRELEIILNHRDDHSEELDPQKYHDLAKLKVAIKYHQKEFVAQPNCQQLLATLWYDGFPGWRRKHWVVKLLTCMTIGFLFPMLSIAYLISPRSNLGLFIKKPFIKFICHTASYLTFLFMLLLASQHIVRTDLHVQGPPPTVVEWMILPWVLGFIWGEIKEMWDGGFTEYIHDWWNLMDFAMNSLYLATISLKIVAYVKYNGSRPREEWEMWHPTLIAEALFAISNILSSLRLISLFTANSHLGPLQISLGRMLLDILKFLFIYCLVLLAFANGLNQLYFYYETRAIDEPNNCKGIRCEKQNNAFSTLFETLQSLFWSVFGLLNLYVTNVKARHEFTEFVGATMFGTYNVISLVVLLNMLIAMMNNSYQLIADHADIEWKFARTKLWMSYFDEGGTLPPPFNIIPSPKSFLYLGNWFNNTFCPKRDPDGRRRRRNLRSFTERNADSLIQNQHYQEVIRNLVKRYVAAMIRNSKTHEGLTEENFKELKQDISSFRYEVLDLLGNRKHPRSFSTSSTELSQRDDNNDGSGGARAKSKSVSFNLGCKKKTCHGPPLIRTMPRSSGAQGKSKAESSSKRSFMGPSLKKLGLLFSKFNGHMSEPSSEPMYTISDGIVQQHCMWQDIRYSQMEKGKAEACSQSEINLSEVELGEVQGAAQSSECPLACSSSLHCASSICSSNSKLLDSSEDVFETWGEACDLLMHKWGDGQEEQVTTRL
Experiment: Outside-out patch recordings from TRPC5 Tet+ cells
Assay type: cell-based
Details: 5 μM compound, 100 nM (-)-Englerin A

average inhibition of (-)-Englerin A-activated TRPC5 current: ~ 65%
SMILES: O=c1c(O)c(-c2ccccc2Br)oc2cc(O)cc(O)c12 [AM12, 3,5,7‐trihydroxy‐2‐(2‐bromophenyl)‐4H‐chromen‐4‐one]
